# Antibody variant affinities, Ab-14 light chain, assay B

The target is the same throughout: PDVDLGDISGINAS, from the HR2 region of SARS-CoV-2 spike.

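The parent was found by panning a naive human phage display library on the peptide. The variants were designed computationally from a first round of random CDR variants and then made and measured. Several design methods are mixed in this list. AlphaSeq pools MATa yeast showing the antibodies with MATalpha yeast showing the peptide. Binding brings cells together so that they mate, and sequencing counts the barcode pairs among the diploids. Read counts were normalised to the haploid input and turned into Kd by a linear fit to BCL2-family pairs of known affinity, for each replicate. The assay was run in six technical replicates.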

Parent: Ab-14, a human scFv built as VH, a (GGGGS)3 linker, VL. Only the CDRs of the light chain vary.
VH: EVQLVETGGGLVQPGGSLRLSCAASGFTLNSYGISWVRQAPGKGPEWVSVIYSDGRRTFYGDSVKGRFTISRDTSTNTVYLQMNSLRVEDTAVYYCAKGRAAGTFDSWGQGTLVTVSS
VL: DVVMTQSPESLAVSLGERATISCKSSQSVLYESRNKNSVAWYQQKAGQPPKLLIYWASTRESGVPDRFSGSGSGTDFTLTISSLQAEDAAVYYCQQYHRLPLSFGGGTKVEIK

Each variant is given by its three light chain CDRs, as the data file delimits them; those of the parent are KSSQSVLYESRNKNSVA, WASTRES, QQYHRLPLS. Each Kd is an estimate from the mating assay, the geometric mean of the replicates in which the pair was seen; lower is stronger. Where no diploid with the target was found in any replicate, the entry reads "not detected": below detection, most likely a poor binder, though not proof of it.

CDR-L1,CDR-L2,CDR-L3,Kd (apparent),detected
KIGYNMGTESFRKDNIA,DVRDREE,QQYFRLPLS,2.8 nM,6 of 6
KLSGFHNVESINKSNVA,EMVTRES,QQYDRLPLS,16 nM,6 of 6
QLENDMTSNQGTRHNIA,EATVIAP,QQYHRLPII,15 nM,6 of 6
MMSQVTGQGMRHRNNVA,QTSTREY,QQYDRLPLI,12 nM,6 of 6
TISQSLLMQTSHKNNVA,GEQTRYS,QQYHRLPLS,14 nM,6 of 6
VLSQSVLYESRNKNSVA,HASTRES,QQYHRLPLS,1.3 nM,6 of 6
KYSQSVLYESRNKNSVA,WASRRES,QQYHRLPLS,470 nM,3 of 6
KLYQSVMLESRNVNSVA,SASQREE,QQYHRLPLS,480 pM,6 of 6
KLSQSALYESRNKNSVA,NASTRES,QQYHRLPLS,690 pM,6 of 6
KSSQSVLYESRNKNSVA,NASKRES,QQYHRLPLS,42 nM,6 of 6
KSSQSVLYESRNKNSVA,WASTRES,QTYHRLPLS,260 nM,1 of 6
KVSEFMRGLMSKKDSIA,DMVTRSN,QQYDRLPLS,2.9 nM,6 of 6
KLMNSMLYESRNVNNVA,NASYRES,QQYHRLPLS,600 pM,6 of 6
KMSQSMLYESRAFNSVA,NASQRES,QQYHRLPLS,2.0 nM,6 of 6
KIRVQQYSQSEMEDNIA,QESVRHQ,QQYFHLPLS,30 nM,3 of 6
IVSGLMLWGMHVKNSIA,EAETRIN,QQYERLPLF,29 nM,2 of 6
KLSQSQLYESRNKNSVA,NASTRLE,QQYHRLPLS,790 pM,6 of 6
KLSQSVGGESRNKNSVA,EAQTREQ,QQYHRLPLS,1.3 nM,6 of 6
KLCQSELYESRNKNSVA,HASTRED,QQYHRLPLS,610 pM,6 of 6
KSSQSVLYESRNKNSVA,WASTRES,QQYHRLPLT,72 nM,6 of 6
KSSQSVLYESRNKNSVA,WASTREA,QQYHRLPLS,35 nM,6 of 6
MISDLTMYGSHNVNSVA,DLSTRGS,QQYHRLPLS,3.4 nM,6 of 6
KMAQGWEYESRNKNNVA,NASQRES,QQYHRLPLS,660 pM,6 of 6
KFSQSQLYEWRNKNSVA,DASTRES,QQYHRLPLS,3.4 nM,6 of 6
KVSQEQDYQSRNKNSVA,DASQRES,QQYHRLPLS,610 pM,6 of 6
VLGQNCSEYEMYCASIA,DAQHREA,QQYYRLPFV,180 nM,6 of 6
KSSQSVLYESSNKNSVA,EASTRES,QQYHRLPLS,3.0 nM,6 of 6
MISDLMLQGSRAKNPIA,NASTREY,QQYHRLPLE,46 nM,6 of 6
KCSQSVLYEDRNKNSVA,NASQRES,QQYHRLPLS,860 pM,6 of 6
KSSQSVLYESRNKNSVA,DASTRES,QQYHRWPLS,43 nM,6 of 6
KLSDSVLYESRNKNSVA,NASTRES,QQYHRLPLN,1.5 nM,6 of 6

The remaining entries, values ahead:

Kd (apparent),detected,CDR-L1,CDR-L2,CDR-L3
not detected,0 of 6,KSSQSVLLQSRNKNSVA,WASTQES,QQYHRLPLS
7.4 nM,6 of 6,TISSVMQTQSHSKSNVA,EVSMRLE,QQYVRLPLA
380 pM,6 of 6,KLEQSEGYESRNKNSVA,NASTRES,QQYHRLPLS
not detected,0 of 6,KQLQSGLYESLNKNSVA,WASTRES,QQYHRLLLS
1.1 µM,6 of 6,KLREVQHVETKQRNNVA,DNDTREY,QDYFRLPLS
150 nM,1 of 6,KLREVHHVETKQKNNVA,DNDTRES,QDYYRLPLS
17 nM,6 of 6,KLMTSSLYESRMANNVA,AASTREE,QQYHRLPLS
24 nM,6 of 6,MVSQLMVWGLHAKNSIA,EGQTRLN,QQYDRLPLF
not detected,0 of 6,KSSQSWLYESRNKNSVA,DASVRES,QQPHRLPLS
25 nM,6 of 6,HMSMLTLQGMRHTNSVA,QMTTREN,QQYDRLPLS
79 nM,6 of 6,KLYMMTGYESRNKDSIA,DNSTRGR,QQYHRLPLS
490 pM,6 of 6,KLSMSGLYESRNKNSVA,NASTRES,QQYHRLPLS
1.1 nM,6 of 6,KSLQGVLYESRNKNSVA,GASQRES,QQYHRLPLS
not detected,0 of 6,KSSPSVLYESRNKSSVA,WASTRES,QQYHRLPLR
19 nM,6 of 6,KSGQGVLYESRNKNSVA,GASYRES,QQYHRLPLF
8.6 nM,6 of 6,QLDQAYRVGALWTQSIA,HGSMRVQ,QCYNRLPLS
600 pM,6 of 6,KVSQSWLMESRNKNSVA,NASTRQS,QQYHRLPLS
4.2 nM,6 of 6,KVLQSVLYEGRNKNSVA,HASTRES,QQYHRLPLS
not detected,0 of 6,KSSQSVLYESRNKNSVA,WASTRMS,SQYHRLPLS
5.8 nM,6 of 6,QIGMLLNFESSKINNVA,QMETRVN,QQYDRLPLS
570 pM,12 of 12,KMSQSVLYESRNKNAVA,DASTRES,QQYHRLPLS
680 pM,6 of 6,KHSQSVLYESRNWNSVA,GASTRES,QQYHRLPLS
1.6 nM,6 of 6,KLMQSWLYESRNKNSVA,HASQRES,QQYHRLPLS
3.9 nM,6 of 6,KISQSFLYESRNKNSVA,WASTRES,QQYHRLPLS
24 nM,6 of 6,QFDQAYRVGALWTDSIA,HASMRVQ,QCYNRLPLM
11 nM,6 of 6,KLSPSWWYESRNKANVA,HASTRES,QQYHRLPLH
not detected,0 of 6,KSSQSVLYESRAKNSVA,WASTRES,QNYHRLPLS
3.2 nM,3 of 6,TISMITSSFSQNINNVA,EVSTRLN,QQYDRLPLA
1.2 nM,6 of 6,KTWQGVLYESRNKNSVA,GASLRES,QQYHRLPLS
1.5 nM,6 of 6,KVSTSELEESRNKNSVA,WASHREE,QQYHRLPLS
1.6 nM,6 of 6,KYVQSVLYESRNKNSVA,EASTRES,QQYHRLPLS
280 pM,6 of 6,KLSGSMLYESRNKNSVA,DASQRES,QQYHRLPLS

10 of these entries, quoted again:

| CDR-L1 | CDR-L2 | CDR-L3 | Kd (apparent) | detected |
|---|---|---|---|---|
| KSGQGVLYESRNKNSVA | GASYRES | QQYHRLPLF | 19 nM | 6 of 6 |
| KSSQSWLYESRNKNSVA | DASVRES | QQPHRLPLS | not detected | 0 of 6 |
| KLYQSVMLESRNVNSVA | SASQREE | QQYHRLPLS | 480 pM | 6 of 6 |
| TISQSLLMQTSHKNNVA | GEQTRYS | QQYHRLPLS | 14 nM | 6 of 6 |
| KSSQSVLYESRNKNSVA | NASKRES | QQYHRLPLS | 42 nM | 6 of 6 |
| KSSQSVLYESRNKNSVA | WASTRES | QQYHRLPLT | 72 nM | 6 of 6 |
| KSSQSVLYESRNKNSVA | DASTRES | QQYHRWPLS | 43 nM | 6 of 6 |
| MMSQVTGQGMRHRNNVA | QTSTREY | QQYDRLPLI | 12 nM | 6 of 6 |
| KSSQSVLYESRNKNSVA | WASTREA | QQYHRLPLS | 35 nM | 6 of 6 |
| IVSGLMLWGMHVKNSIA | EAETRIN | QQYERLPLF | 29 nM | 2 of 6 |

Where one sequence has several entries in the source, the replicates are pooled. The parent sequence was in this pool as ten entries: three were never detected, three once, and four in most replicates, with averages from 2.2 nM to 240 nM. The authors averaged sequences with at least three values out of six and counted those with two or fewer as poor binders. Background: pairings of all light chain designs with three empty control strains gave a value in 4% of cases (median 430 nM, 5th percentile 38 nM). Values in that range, when seen in few replicates, are hard to tell from nonspecific mating. Values of this round are not directly comparable with the first-round values of the same sequences.

Values reported by Li et al. 2023, doi:10.1038/s41467-023-39022-2 (FLAb copy).